Measured values taken from patent US5750496A, “Method of controlling cryptosporidium infectons using protease inhibitors” (priority 1996, dated 1998).

Tested on: BFTE cells
Test: Cytotoxicity for BFTE cells at the concentrations evaluated
Format: cell-based, bovine
Details: at the concentrations evaluated (5-1000 μg/ml)
Method: Primary BFTE cell cultures were prepared from bovine fallopian tubes (FT). Fat was trimmed from the serosal surfaces, mucus was gently squeezed from the lumens, and FT were decontaminated by being submerged in 70% ethanol for 30 seconds. The FT were then transferred to sterile culture petri dishes containing HBSS and washed twice. The BFTE cells were harvested either by flushing the FT with HBSS, using a 10 ml syringe equipped with a mouse feeding needle, or by opening the FT lengthwise with scissors and scraping the mucosal surfaces. The BFTE cells were subsequently washed in HBSS by centrifugation at 200×g (force of gravity) for 10 minutes, planted in 75-cm^2 flasks containing RPMI 1640 and cultured in a 5% CO2 incubator at 37° C. for 72 to 120 hours. […]
The anticryptosporidial potential of the protease inhibitor AAT was evaluated in a BFTE cell culture system inoculated with C. parvum oocysts in accordance with the methods detailed in Example I. AAT concentrations of 5, 10, 50 100, and 500 micrograms per milliliter ("μg/ml") in RPMI medium were mixed with C. parvum oocysts and used to inoculate BFTE cell monolayers. […] Results, as set out in Table 1, represent the mean number of parasites counted per treatment group expressed as a percent, plus or minus the standard deviation, of the mean number of parasites counted in the infection control group.

aprotinin
Cytotoxicity for BFTE cells: no evidence of cytotoxicity
